# Test results reported in paper PMC7723054.
# Some of the results follow.
# T1: LIN28A (human?, UniProt Q9H9Z2 1-209)
# T1 sequence: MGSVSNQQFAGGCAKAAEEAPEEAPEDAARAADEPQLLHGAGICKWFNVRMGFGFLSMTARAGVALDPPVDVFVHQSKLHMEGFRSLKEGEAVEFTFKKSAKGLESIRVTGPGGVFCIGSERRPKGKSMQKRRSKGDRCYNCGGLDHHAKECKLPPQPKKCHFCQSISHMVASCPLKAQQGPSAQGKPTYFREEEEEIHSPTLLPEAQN
# T2: CIRBP (Homo sapiens, UniProt Q14011 1-172)
# T2 sequence: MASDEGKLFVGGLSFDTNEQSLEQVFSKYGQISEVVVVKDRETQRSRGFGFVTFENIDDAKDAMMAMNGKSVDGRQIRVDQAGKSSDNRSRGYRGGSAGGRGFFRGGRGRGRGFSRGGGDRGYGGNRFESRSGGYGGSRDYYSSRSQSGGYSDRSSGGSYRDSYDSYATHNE
# T3: DHX36 (Homo sapiens, UniProt Q9H2U1 1-1008)
# T3 sequence: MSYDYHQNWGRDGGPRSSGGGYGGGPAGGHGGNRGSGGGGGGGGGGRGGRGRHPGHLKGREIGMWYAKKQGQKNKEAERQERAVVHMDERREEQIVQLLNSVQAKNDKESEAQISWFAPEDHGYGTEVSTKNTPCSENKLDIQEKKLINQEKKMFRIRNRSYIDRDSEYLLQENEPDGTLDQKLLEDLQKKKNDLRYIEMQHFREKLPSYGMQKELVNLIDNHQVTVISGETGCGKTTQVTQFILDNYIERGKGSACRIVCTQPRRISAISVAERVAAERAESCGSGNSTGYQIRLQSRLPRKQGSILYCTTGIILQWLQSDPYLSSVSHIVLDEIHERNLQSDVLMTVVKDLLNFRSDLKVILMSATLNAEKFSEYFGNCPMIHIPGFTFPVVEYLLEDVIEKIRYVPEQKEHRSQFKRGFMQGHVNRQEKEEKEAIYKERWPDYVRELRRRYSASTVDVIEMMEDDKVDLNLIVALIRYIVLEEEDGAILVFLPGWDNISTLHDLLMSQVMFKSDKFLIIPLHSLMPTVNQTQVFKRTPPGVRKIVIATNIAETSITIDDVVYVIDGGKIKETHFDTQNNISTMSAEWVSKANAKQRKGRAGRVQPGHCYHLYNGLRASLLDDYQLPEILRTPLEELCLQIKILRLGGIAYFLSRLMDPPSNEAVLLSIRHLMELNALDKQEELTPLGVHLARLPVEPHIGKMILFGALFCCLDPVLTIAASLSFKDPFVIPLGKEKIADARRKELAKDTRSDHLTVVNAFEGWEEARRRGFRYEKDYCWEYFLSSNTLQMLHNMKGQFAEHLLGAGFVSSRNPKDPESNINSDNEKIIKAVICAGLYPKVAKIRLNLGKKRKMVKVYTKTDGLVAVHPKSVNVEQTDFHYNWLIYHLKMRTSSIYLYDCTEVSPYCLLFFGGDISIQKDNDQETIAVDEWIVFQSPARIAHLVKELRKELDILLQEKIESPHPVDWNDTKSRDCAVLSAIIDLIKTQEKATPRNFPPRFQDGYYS
# B1: hsa-mir-199a-2 (structured_RNA)
# RNA: GGGAAAACUACAGGGGCUGGUUUAGAGCGGUGUACGAAGUUUCAGCCUGUUCAGGACAAUGCCGUUGUACAGCUGAAGCUUCGUGCAC
# B2: hsa-mir-4757 (structured_RNA)
# RNA: GGGAGCGCGCUGAGCAACUAAUAGUCGAGGUGUACGAAGUUUCAGCCACGGUGUCUGCGGGAGGAGACCAUGGCUGAAGCUUCGUGCAC
# B3: hsa-mir-1972-1_1972-2 (structured_RNA)
# RNA: GGGAAUAAUACUGUAAGGGAGCCUGGAUGGUGUACGAAGUUUCAGCUUAAAUGUGUCAUUUAAAAAUUCAGGCUGAAGCUUCGUGCAC
# B4: hsa-mir-7160 (structured_RNA)
# RNA: GGGAUAUCGAGGUGCAAGGCUCGAAUAAGGUGUACGAAGUUUCAGCUGUGCCCCGUACCGGACAGGGCUGAAGCUUCGUGCAC
# B5: hsa-mir-365b (structured_RNA)
# RNA: GGGAAAACCUGGUUCAGUAACGACCGAGGGUGUACGAAGUUUCAGCAGCUGUGUUUUCUGACUCAGUCAUAAUGCUGAAGCUUCGUGCAC
# B6: PARIS_ID17 (structured_RNA)
# RNA: GGGACUACGUGCAACUGGAUAGAAAACGGGUGUACGAAGUUUCAGCGCUCUUGGCACAUCUGGUUGGUGACACUGUUUUGUGAGAUGGGUUGAAAGCGCUGAAGCUUCGUGCAC
# B7: hsa-mir-8089 (structured_RNA)
# RNA: GGGAAUCGCGUAGACGUAAUUAGACGACGGUGUACGAAGUUUCAGCGGGGGCAGGCUGCCACCUCCUGGCUGAAGCUUCGUGCAC
# B8: hsa-mir-1321 (structured_RNA)
# RNA: GGGAAAGUCAGCGCGUUUGCAACGAAGGGGUGUACGAAGUUUCAGCCCUGUUUUACAAAUAAGGAAAUAAACUCAGGGCUGAAGCUUCGUGCAC
# B9: hsa-mir-516b-2 (structured_RNA)
# RNA: GGGAUGAAAUAUGCGUGUCAAAGCUCUGGGUGUACGAAGUUUCAGCAGCACUUUGUGUUUUGUGAAAGAAAGUGCUGCUGAAGCUUCGUGCAC
# B10: hsa-mir-205 (structured_RNA)
# RNA: GGGACGGCAUAGUCGGUCGAUAUUAUCCGGUGUACGAAGUUUCAGCAGUCUGUCUCAUACCCAACCAGAUUGCUGAAGCUUCGUGCAC
# B11: hsa-mir-4274 (structured_RNA)
# RNA: GGGAAAUACCGCAGAAGACCCCAAAGCAGGUGUACGAAGUUUCAGCGCCGGGGCCUGGCGCUCCUCUACCUUGUCAGGUGACCCAGCGCUGAAGCUUCGUGCAC
# B12: hsa-mir-758 (structured_RNA)
# RNA: GGGAAUAAAAUGGGGAGCGGUUUACAGAGGUGUACGAAGUUUCAGCCACACGCUUUAUUUGUGCCGUUUGGCUGAAGCUUCGUGCAC
# B13: hsa-mir-4762 (structured_RNA)
# RNA: GGGAAUGCGAGACAUCUCGUUGGCAGUAGGUGUACGAAGUUUCAGCGAAGCCUUGAUCAGAAGCUAGGAAGGCUUCGCUGAAGCUUCGUGCAC
# B14: hsa-mir-4498 (structured_RNA)
# RNA: GGGACGAUUAAGGGAGAAUAUACCGCCUGGUGUACGAAGUUUCAGCGCUGCAGAUCUUUGUCUAAGCAGCGCUGAAGCUUCGUGCAC
# B15: PARIS_ID42 (structured_RNA)
# RNA: GGGAACGGCUAAUGUUGUGGCGACAGGUGGUGUACGAAGUUUCAGCCCAUUUUUCUAGUGAUGGCUUUGAGGUUAUUUGCAGUUUCCUAGCCAUCUCAAAGUGUGGCUGAAGCUUCGUGCAC
# B16: hsa-mir-5693 (structured_RNA)
# RNA: GGGAGUAACCGUCACGUGUGCAGUCGAUGGUGUACGAAGUUUCAGCUGCUGUGAGCUAGCCAGCAGGCUGAAGCUUCGUGCAC
# B17: hsa-mir-3129 (structured_RNA)
# RNA: GGGAGACACGCAACGUAAGACGAUAACCGGUGUACGAAGUUUCAGCGUUUGCCUGUUAAUGAAUUCAAACGCUGAAGCUUCGUGCAC
# B18: hsa-mir-6723 (structured_RNA)
# RNA: GGGAGUAGUUUUAGACGAAGUAACCACCGGUGUACGAAGUUUCAGCGGGCAUUCCGGAUAGGCCGAGAAAGUGUUGGCUGAAGCUUCGUGCAC
# B19: hsa-mir-523 (structured_RNA)
# RNA: GGGAAUGCUCUUCUUCGCGAGCGUGUACGGUGUACGAAGUUUCAGCUUUCUGUUGUCUGAAAGAAAAGAACGCUGAAGCUUCGUGCAC
# B20: hsa-mir-612 (structured_RNA)
# RNA: GGGAAGGUCCUUUAUACGGCAGACAUCCGGUGUACGAAGUUUCAGCCCUUAGCACUAGCAGGAGGGCUGAAGCUUCGUGCAC
# B21: hsa-mir-1261 (structured_RNA)
# RNA: GGGAAAGUUAAGACAGUAACUGUGCAAUGGUGUACGAAGUUUCAGCGCUUAUGGGGAUAUUGUGGUUGAUCUGUUCUAUCCAGAUGACGCUGAAGCUUCGUGCAC
# B22: hsa-mir-3119-2 (structured_RNA)
# RNA: GGGAGGACUACGCUAGGUUUAUGCAGUCGGUGUACGAAGUUUCAGCUGGCAAAGACAUAGAUUGUUUAGCUACCCCUUUGCCAGCUGAAGCUUCGUGCAC
# B23: hsa-mir-519e (structured_RNA)
# RNA: GGGAGCAGUAUCCUGCAGAUCAUGCUUGGGUGUACGAAGUUUCAGCACUUUCUGUUUGAAAGAAAACAAAGUGCUGAAGCUUCGUGCAC
# Target: U1A (Homo sapiens, UniProt P09012)
# Experiment: FOREST: bead pull-down of RNA structure library v1, barcode microarray; U1A/LIN28A: 20 mM HEPES pH 7.5, 80 mM KCl, 20 mM NaCl, 10% glycerol, 2 mM DTT, 0.1 ug/uL BSA, 4 C; BG4/CIRBP/DHX36: 10 mM Tris-HCl pH 7.5, 100 mM KCl (or LiCl),; high values mean tight binding
row,Binder,binding signal [z-score]
1,B1,0.0431
2,B2,0.0428
3,B3,0.0618
4,B4,0.0491
5,B5,0.0372
6,B6,0.0463
7,B7,0.0486
8,B8,1.7
9,B9,0.054
10,B10,0.0334
11,B11,0.0436
12,B12,0.0516
13,B13,0.0366
14,B14,0.0522
15,B15,0.0388
16,B16,0.0634
17,B17,0.0611
18,B18,0.0575
19,B19,0.0412
20,B20,1.71
21,B21,0.0342
22,B22,0.0398
23,B23,0.0512

# Target: T1, LIN28A
# Experiment: as above
row,Binder,binding signal [z-score]
1,B1,0.0696
2,B2,-1.2
3,B3,0.875
4,B4,-0.326
5,B5,-0.499
6,B6,1.45
7,B7,0.0571
8,B8,0.679
9,B9,1.48
10,B10,-0.18
11,B11,-0.686
12,B12,0.448
13,B13,0.724
14,B14,-1.03
15,B15,0.423
16,B16,-1.39
17,B17,-0.109
18,B18,0.878
19,B19,0.0209
20,B20,-0.306
21,B21,0.836
22,B22,1.53
23,B23,-0.676

# Target: T2, CIRBP
# Experiment: as above
row,Binder,binding signal [z-score]
1,B1,0.841
2,B3,0.0639
3,B4,-0.802
4,B5,0.915
5,B6,0.532
6,B7,1.53
7,B8,0.793
8,B9,0.322
9,B10,-0.269
10,B11,0.458
11,B12,-0.474
12,B13,1.06
13,B14,0.301
14,B15,0.619
15,B16,-1.26
16,B17,-0.026
17,B18,0.567
18,B19,-0.638
19,B20,-0.0592
20,B21,0.649
21,B22,0.736
22,B23,-0.419

# Target: T3, DHX36
# Experiment: as above
row,Binder,binding signal [z-score]
1,B1,0.172
2,B2,0.308
3,B3,0.344
4,B4,1.36
5,B5,0.458
6,B6,0.641
7,B7,0.747
8,B8,-0.19
9,B9,0.407
10,B10,-0.741
11,B11,0.0486
12,B12,0.301
13,B13,0.44
14,B14,1.08
15,B15,0.0752
16,B16,0.187
17,B17,1.73
18,B18,0.256
19,B19,-0.0164
20,B20,-0.953
21,B21,0.556
22,B22,1.87
23,B23,0.0214
